Assay results: ChEMBL document CHEMBL3576868 (J Med Chem, 2015)

Sequences of proteins named here, by UniProt entry; tags and fusion partners are left off. Residues count along the entry.
UniProt P06865, 23-529 G269S limits assumed: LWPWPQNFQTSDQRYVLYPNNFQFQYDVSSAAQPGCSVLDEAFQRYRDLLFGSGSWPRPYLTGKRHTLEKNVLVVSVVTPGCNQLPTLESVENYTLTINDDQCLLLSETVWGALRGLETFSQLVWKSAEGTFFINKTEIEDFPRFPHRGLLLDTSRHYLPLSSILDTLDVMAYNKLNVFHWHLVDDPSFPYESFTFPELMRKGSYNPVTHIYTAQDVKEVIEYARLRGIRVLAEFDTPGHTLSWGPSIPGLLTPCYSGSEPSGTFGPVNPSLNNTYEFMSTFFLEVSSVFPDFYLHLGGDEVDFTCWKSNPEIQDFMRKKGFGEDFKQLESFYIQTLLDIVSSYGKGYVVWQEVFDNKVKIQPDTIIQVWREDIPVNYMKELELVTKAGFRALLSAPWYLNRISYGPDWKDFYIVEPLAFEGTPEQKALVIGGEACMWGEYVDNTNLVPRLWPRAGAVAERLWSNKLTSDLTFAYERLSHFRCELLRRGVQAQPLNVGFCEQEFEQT

Biological target: Beta-hexosaminidase subunit alpha (Homo sapiens, UniProt P06865, G269S)
Experiment: Inhibition of HexA alpha G269S mutant in ATSD patient fibroblasts using MUGS substrate incubated for 1 to 2 hrs at pH 4.5 by spectrofluorometry

`CCc1nc(N)nc(N)c1-c1ccc(Cl)cc1` [PYRIMETHAMINE] was tested, and the IC50 was 8.5 µM.
